Assay [1] relates to Vero cells. Kind of assay: Vero cell cytotoxicity, resazurin dye reduction assay. The note with it: read-out: IC50 Vero cells; Vero cell growth inhibition, 48 h then resazurin overnight. In general terms: Resazurin is reduced to fluorescent resorufin, in cell work by metabolically active cells.
In assay [2] the target is human ENPP1 (Homo sapiens, UniProt P22413). Nature of the assay: Luminescence-based AMP-Glo ENPP1 enzyme inhibition assay with 2′,3′-cGAMP substrate. The note with it: for IC50 ENPP1: 2′,3′-cGAMP 300 µM, ENPP1 5 µM; for IC50: read-out: IC50 ENPP1, 2′,3′-cGAMP 300 µM, ENPP1 5 µM.

Sequences of proteins named here, by UniProt entry; tags and fusion partners are left off.
UniProt P22413, whole entry: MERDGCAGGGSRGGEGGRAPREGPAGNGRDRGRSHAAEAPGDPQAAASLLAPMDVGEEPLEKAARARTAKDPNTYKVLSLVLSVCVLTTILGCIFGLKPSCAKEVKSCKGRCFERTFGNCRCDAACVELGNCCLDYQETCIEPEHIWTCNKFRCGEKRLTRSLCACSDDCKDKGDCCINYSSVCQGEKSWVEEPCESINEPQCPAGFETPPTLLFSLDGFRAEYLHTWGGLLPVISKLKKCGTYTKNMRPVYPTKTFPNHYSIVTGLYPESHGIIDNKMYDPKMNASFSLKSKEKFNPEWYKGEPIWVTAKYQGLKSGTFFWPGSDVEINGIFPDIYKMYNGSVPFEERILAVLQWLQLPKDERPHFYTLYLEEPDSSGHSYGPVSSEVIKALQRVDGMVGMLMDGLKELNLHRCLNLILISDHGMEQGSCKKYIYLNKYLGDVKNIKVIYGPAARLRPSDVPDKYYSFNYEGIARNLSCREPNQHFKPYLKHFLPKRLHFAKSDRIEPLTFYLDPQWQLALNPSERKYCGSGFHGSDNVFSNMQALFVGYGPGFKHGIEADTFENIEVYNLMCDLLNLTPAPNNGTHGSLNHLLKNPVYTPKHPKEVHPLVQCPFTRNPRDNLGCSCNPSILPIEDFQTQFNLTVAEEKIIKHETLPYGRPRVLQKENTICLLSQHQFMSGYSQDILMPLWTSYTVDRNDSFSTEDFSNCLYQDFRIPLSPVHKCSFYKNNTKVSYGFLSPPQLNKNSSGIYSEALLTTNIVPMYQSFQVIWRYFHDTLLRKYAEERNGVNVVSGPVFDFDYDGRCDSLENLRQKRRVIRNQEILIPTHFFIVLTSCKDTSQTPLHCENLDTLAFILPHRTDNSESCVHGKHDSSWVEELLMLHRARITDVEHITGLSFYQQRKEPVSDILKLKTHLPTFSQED

SMILES strings stand for the structures. Several values for one entry are separate records, joined by “and”; a condition that tells them apart may be missing. Equal values may be shown once.

As a reminder, the IC50 is the concentration that gives 50% inhibition. For `C[N+]1(CCC[N+]2(C)CC3C4CCCCC4=C4CCCCC4C3C2)CCOCC1` (stereo not drawn), in assay [1], the concentration for half-maximal inhibition (IC50) came out at 156 µM. For the same compound, in assay [2], the “IC50 ENPP1” value is recorded as 10 µg/mL; the IC50 was 15 µM and 15.6 µM.

In the case of `c1ccc(CN2CN(Cc3ccccc3)CN(Cc3ccccc3)C2)cc1`, the IC50 in assay [1] is more than 279 µM. Also, in assay [2], the “IC50 ENPP1” value is more than 100 µg/mL and the IC50 is more than 279 µM.

These data come from article PMC10783014, “Structure-based virtual screening and in vitro validation of inhibitors of cyclic dinucleotide phosphodiesterases ENPP1 and CdnP” (Microbiology Spectrum, 2023).
